The target in test [1] is T1, GAD65 273-292 peptide on HLA-DRB1*04:01 (human).
T1 peptide: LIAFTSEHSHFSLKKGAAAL
The test can be described thus: activation reporter or marker.

Test [2] concerns the target T2, GAD65 377-396 peptide on HLA-DRB1*04:01 (human).
T2 peptide: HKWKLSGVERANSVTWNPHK
The test can be described thus: activation reporter or marker.

B1: Clone_244 (TCR)
alpha TRAV23DV6 TRAJ34 CDR3: CAASEPDKLIF
beta TRBV27 TRBJ1-2 CDR3: CASSSQGANYGYTF
Take B1: the binding result in test [1] was “recognises”.

B2: Clone_109 (TCR)
alpha TRAV29DV5 TRAJ34 CDR3: CAATTDKLIF
beta TRBV7-2 TRBJ2-1 CDR3: CASSLAYGTHRYNEQFF
As for B2, in test [2], the binding result is given as “recognises”.

These data come from article PMC8663791 (2021).
